# Yeast mating assay 2: variants of the scFv Ab-95

Antigen: PDVDLGDISGINAS, a 14-residue peptide of the SARS-CoV-2 spike HR2 region.

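The starting antibody came from a phage panning campaign against this peptide. The library (AAYL52) carries one to three amino acid substitutions per variant, with no insertions or deletions. Affinity was read by AlphaSeq, a pooled yeast mating assay with surface-displayed partners. After mating in shaken culture at 30 °C for 16 h, diploids were selected and their barcode pairs sequenced. The ratio of observed to expected reads was calibrated, replicate by replicate, on BCL2-family standards whose Kd was known from biolayer interferometry. The assay was run in three technical replicates.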

Each scFv is VH, a (GGGGS)3 linker, VL, as in the parent Ab-95, and differs from it in the CDRs of the light chain only.
VH: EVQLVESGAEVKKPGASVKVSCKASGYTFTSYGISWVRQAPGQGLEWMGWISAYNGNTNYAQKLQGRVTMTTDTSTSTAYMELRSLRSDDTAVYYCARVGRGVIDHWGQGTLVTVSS
VL: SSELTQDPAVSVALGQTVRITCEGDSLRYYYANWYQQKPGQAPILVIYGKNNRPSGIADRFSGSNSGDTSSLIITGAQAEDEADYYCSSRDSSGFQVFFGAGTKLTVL

Sequences are complete VL domains.
Every variant below is changed at D91 of the VL (sequential numbering).
The read-out is the apparent dissociation constant on a log10 scale (nM): the lower, the stronger.
"ND" means that the variant was in the library but no mating with the target was seen in that replicate; the authors take this as a sign of poor binding, and no number exists.
In this assay the parent's reference entry averaged 2.31; its copy inside this library read 2.25.
As a blank, each scFv also met three strains without target: over library AAYL52, 28% of these pairings were detected, typically at 3.91 and seldom below 2.90.

For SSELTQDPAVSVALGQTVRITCVGDSLRYYYANWYQQKPGQAPILVIYGKNMRPSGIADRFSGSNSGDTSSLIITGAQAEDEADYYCSSRESSGFQVFFGAGTKLTVL, the assay gave 2.77, 2.70, 2.74. With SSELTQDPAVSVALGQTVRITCEGDSLRYYYANWYQQKPGQAPILVIYGKNNRPSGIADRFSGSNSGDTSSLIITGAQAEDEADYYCSSLQSSGLQVFFGAGTKLTVL the result was ND, ND, ND. For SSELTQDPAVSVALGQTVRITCEGDSMRYYYANWYQQKPGQAPILVIYGKNNRPSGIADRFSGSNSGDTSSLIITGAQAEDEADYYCMSRASSGFQVFFGAGTKLTVL, the assay gave 4.31, ND, ND. With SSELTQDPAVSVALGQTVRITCEGHSLRYYYANWYQQKPGQAPILVIYGKNNRPSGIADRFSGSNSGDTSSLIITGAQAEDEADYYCSSRNFSGFQVFFGAGTKLTVL the result was 2.87, 3.78, 3.46. For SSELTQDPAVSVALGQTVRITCEGDSLRYYYANWYQQKPGQAPILVIYCKNNRPSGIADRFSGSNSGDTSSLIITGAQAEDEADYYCSSRFSSQFQVFFGAGTKLTVL, the assay gave ND, ND, 3.44.

For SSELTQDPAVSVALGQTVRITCEGDSLYYYYANWYQQKPGQAPILVIYGKNNRPSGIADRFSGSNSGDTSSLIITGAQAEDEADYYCSSRISMGFQVFFGAGTKLTVL, the assay gave ND, ND, ND. With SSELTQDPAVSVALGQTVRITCEGDSLNYYYANWYQQKPGQAPILVIYGKNNRPKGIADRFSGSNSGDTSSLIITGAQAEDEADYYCSSRRSSGFQVFFGAGTKLTVL the result was 2.80, 3.58, ND. With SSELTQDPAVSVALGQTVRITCEGDSLRYYYANWYQQKPGQAPILVIYGKNNRPSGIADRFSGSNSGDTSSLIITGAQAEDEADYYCSSRLSSGRQVMFGAGTKLTVL the result was 2.20, 2.27, 1.92. For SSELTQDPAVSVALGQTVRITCFGDSLRYYYANWYQQKPGQAPILVIYGKNNRPSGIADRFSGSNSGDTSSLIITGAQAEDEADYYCSHRESSGFQVFFGAGTKLTVL, the assay gave 5.00, 4.16, 2.44. For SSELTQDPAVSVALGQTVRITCEGDSLRYYYANWYQQKPGQAPILVIYGKINRPSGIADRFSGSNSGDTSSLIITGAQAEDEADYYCSSLQSSGFQVFFGAGTKLTVL, the assay gave 3.46, ND, ND.

The variant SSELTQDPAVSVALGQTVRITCEVDSLRYYYANWYQQKPGQAPILVIYGKNNRPSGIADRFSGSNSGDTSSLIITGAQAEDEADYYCSSRVSSGFQVFFGAGTKLTVL showed 4.53, ND, ND. With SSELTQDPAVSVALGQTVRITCEGDSLRYYYANWYQQKPGQAPILVIYGCNNRSSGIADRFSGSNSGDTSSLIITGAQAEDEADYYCSSRVSSGFQVFFGAGTKLTVL the result was ND, 3.37, 3.80. The variant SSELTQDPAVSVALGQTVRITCEGDSLRYYYANWYQQKPGQAPILVIYGKNCHPSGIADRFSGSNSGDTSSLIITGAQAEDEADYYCSSRCSSGFQVFFGAGTKLTVL gave 3.29, 3.85, 3.26. The variant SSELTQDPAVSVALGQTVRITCDGDSLRYYYANWYQQKPGQAPILVIYGKNMRPSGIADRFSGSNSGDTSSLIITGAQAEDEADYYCSSRGSSGFQVFFGAGTKLTVL showed 2.90, 2.86, 2.83. For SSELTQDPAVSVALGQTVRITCEGDSLCYYYANWYQQKPGQAPILVIYGKNNRPSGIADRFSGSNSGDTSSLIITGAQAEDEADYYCSSRNSSGFQVFFGAGTKLTVL, the assay gave ND, 4.34, 3.17.

The variant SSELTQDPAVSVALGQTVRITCEGRSLCYYYANWYQQKPGQAPILVIYGKNNRPSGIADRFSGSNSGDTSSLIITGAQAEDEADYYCSSRRSSGFQVFFGAGTKLTVL gave 4.24, 4.28, ND. For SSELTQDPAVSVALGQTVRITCEGDSSRYYYANWYQQKPGQAPILVIYFKNNRPSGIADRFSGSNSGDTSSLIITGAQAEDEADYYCSSRYSSGFQVFFGAGTKLTVL, the assay gave 3.00, 4.75, ND. With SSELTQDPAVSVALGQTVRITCEGDSLRYYYANWYQQKPGQAPILVIYGKNNRPSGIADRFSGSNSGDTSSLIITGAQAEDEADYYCSSRPSSGFQYGFGAGTKLTVL the result was 2.02, 1.71, 1.53. The variant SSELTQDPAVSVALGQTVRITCEGDSLRYYYANWYQQKPGQAPILVIYGKNNRPSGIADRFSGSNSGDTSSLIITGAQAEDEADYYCSSRVSSGFQVFFGAGTKLTVL gave 4.57, 4.27, 4.19. For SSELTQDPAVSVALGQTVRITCEGDSLRYYYANWYQQKPGQAPILVIYGMNNRPSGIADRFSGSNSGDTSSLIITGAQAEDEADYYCSYRWSSGFQVFFGAGTKLTVL, the assay gave 2.96, 3.56, 2.77.

The variant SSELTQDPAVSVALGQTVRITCEGDSLRYYLANWYQQKPGQAPILVIYGKHNRPSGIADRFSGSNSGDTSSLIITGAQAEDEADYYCSSRNSSGFQVFFGAGTKLTVL gave 3.96, 2.93, ND. For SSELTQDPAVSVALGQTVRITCEGDSLRYYYANWYQQKPGQAPILVIYGGNNRTSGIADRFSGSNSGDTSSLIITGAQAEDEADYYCSSRFSSGFQVFFGAGTKLTVL, the assay gave 4.64, 3.49, 2.71. The variant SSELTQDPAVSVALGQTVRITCEGDSLYYYYANWYQQKPGQAPILVIYGKNNRPSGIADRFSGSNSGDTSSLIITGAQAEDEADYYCSSRCSSGFQHFFGAGTKLTVL showed 3.78, 4.55, 3.38. For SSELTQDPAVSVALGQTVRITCEGDSCRYYYANWYQQKPGQAPILVIYGKNNRPSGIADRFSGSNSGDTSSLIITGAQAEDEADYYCSSDGSSGFQVFFGAGTKLTVL, the assay gave 3.91, ND, 4.16. The variant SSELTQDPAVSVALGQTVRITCEGDSLRYYYANWYQQKPGQAPILVIYGKHDRPSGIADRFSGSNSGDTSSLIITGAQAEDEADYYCSSRNSSGFQVFFGAGTKLTVL gave 3.86, 3.89, ND.

The variant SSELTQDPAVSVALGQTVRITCEGDSLRYYYANWYQQKPGQAPILVIYGKNNRPSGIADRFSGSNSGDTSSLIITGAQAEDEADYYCSQRCSLGFQVFFGAGTKLTVL gave 2.05, 1.56, 0.98.

The closing 2 entries, repeated:

| VL | log10 Kd, replicates |
|---|---|
| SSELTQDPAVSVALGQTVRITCEGDSLRYYYANWYQQKPGQAPILVIYGKHDRPSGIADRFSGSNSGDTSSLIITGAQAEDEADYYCSSRNSSGFQVFFGAGTKLTVL | 3.86, 3.89, ND |
| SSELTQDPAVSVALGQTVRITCEGDSLRYYYANWYQQKPGQAPILVIYGKNNRPSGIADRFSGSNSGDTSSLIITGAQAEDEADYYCSQRCSLGFQVFFGAGTKLTVL | 2.05, 1.56, 0.98 |

From the AlphaSeq antibody data of Engelhart et al. 2022 (doi:10.1038/s41597-022-01779-4), copy in the FLAb collection.